# Measured affinities in a library of Ab-14 light chain variants

Source: Engelhart et al. 2022 (doi:10.1038/s41597-022-01779-4), MIT Lincoln Laboratory and A-Alpha Bio; data file from the FLAb repository.

The target is the same throughout: PDVDLGDISGINAS, from the HR2 region of SARS-CoV-2 spike.

Ab-14 is the parent antibody, in scFv form: VH, then three GGGGS repeats, then VL. The heavy chain is unchanged in all variants.
VH: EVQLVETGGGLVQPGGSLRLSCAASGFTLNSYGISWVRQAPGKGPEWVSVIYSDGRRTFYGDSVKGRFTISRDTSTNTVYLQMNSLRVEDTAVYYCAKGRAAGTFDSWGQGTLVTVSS
VL: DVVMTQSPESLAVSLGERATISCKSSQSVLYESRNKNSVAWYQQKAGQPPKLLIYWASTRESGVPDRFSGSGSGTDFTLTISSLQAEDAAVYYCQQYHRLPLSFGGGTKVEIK

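Library AAYL50 holds single substitutions and randomly drawn double and triple substitutions in the CDRs. Affinity was read by AlphaSeq, a pooled yeast mating assay with surface-displayed partners. Mating (16 h, 30 °C) was followed by selection of diploids and sequencing of their barcodes. A regression on co-assayed BCL2-family reference pairs converts the normalised counts of each replicate to an apparent Kd. Mating was done three times.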

Positions count from residue 1 of the parent VL; K24V puts V in place of K.
Scale: log10 of Kd in nM, estimated from mating counts; low values are strong binders.
A pair that was not seen in that replicate is written "ND"; this usually means weak binding, but a binder can also be missed.
Nonspecific signal, from three strains lacking the peptide, appeared in 18% of pairings of library AAYL50, centred on 4.19 (5% of these signals below 2.99); values are not corrected for it. The control count says in how many pairings with the empty strains this scFv gave a signal, with their mean in brackets.
In this assay the parent's reference entry averaged 0.65; its copy inside this library read 1.68.

| # | changes | log10 Kd, replicates | signal with controls |
|---|---|---|---|
| 1 | K24V V39Y S103D | 5.69 / ND / ND | 1 of 9 (3.89) |
| 2 | S25Q S58C H98F | 3.01 / 2.72 / 3.79 | 0 of 9 |
| 3 | S28E R60D H98Q | ND / ND / ND | 0 of 9 |
| 4 | V29Q E61L Q95M | 0.97 / 1.00 / 1.08 | 0 of 9 |
| 5 | K36E V39I R99I | 1.33 / 1.28 / 1.26 | 0 of 9 |
| 6 | S26V E61R | ND / ND / ND | 0 of 9 |
| 7 | Q27F K36A L100V | ND / 3.10 / 3.40 | 1 of 9 (3.70) |
| 8 | E32P N37P T59W | 2.77 / 2.39 / 4.16 | 1 of 9 (3.97) |
| 9 | Y31T P101W | 0.27 / 0.50 / 0.44 | 0 of 9 |
| 10 | K24V T59L R60F | ND / ND / 5.26 | 3 of 9 (4.24) |
| 11 | Y31V V39N Q96C | ND / ND / ND | 0 of 9 |
| 12 | S25Y V29G T59Q | 0.13 / 0.45 / 0.45 | 8 of 9 (4.84) |
| 13 | Y31K S38E R99Q | 3.34 / 3.35 / 3.36 | 3 of 9 (5.72) |
| 14 | Q27V H98Q S103E | 1.08 / 1.28 / 1.28 | 4 of 9 (3.98) |
| 15 | S38C Q95W Q96K | 4.26 / ND / 4.62 | 3 of 9 (4.65) |
| 16 | E32A S33I L100E | ND / ND / 4.42 | 2 of 9 (3.86) |
| 17 | S25L W56G R60H | -0.47 / 0.05 / -0.38 | 7 of 9 (5.31) |
| 18 | K24Y Q95S Y97C | ND / 3.65 / ND | 1 of 9 (4.62) |
| 19 | V29K A40L S103Y | ND / ND / 4.28 | 0 of 9 |
| 20 | V29R N35W K36M | 1.10 / 1.55 / 0.90 | 1 of 9 (1.99) |
| 21 | K36R W56K | 0.98 / 1.27 / 1.18 | 0 of 9 |
| 22 | S25C S28V P101Y | 0.73 / 1.29 / 1.10 | 1 of 9 (4.59) |
| 23 | K24L S33V Q95T | ND / ND / ND | 1 of 9 (4.00) |
| 24 | L30S Y31H S62W | 1.06 / 1.15 / 1.32 | 2 of 9 (4.16) |
| 25 | S25F K36Q L102G | -0.01 / 0.23 / 0.07 | 1 of 9 (4.65) |
| 26 | S28G T59P S62R | ND / ND / ND | 0 of 9 |
| 27 | R34G N37T A57C | ND / ND / ND | 0 of 9 |
| 28 | Q27S Q95K H98K | ND / ND / ND | 1 of 9 (3.59) |
| 29 | S38L H98A R99D | ND / ND / ND | 0 of 9 |
| 30 | N35R V39C Q96V | 4.86 / ND / ND | 1 of 9 (3.96) |
| 31 | L30T A40S R99I | 3.31 / 2.79 / 3.37 | 5 of 9 (4.08) |
| 32 | A40W Y97T L100Q | ND / 5.03 / 4.10 | 1 of 9 (2.98) |
| 33 | K24D R34N | 1.81 / 1.92 / 1.68 | 0 of 9 |
| 34 | E32M A40E S58L | ND / 4.29 / ND | 0 of 9 |
| 35 | Y31E T59C L102R | 0.89 / 1.17 / 0.92 | 1 of 9 (3.86) |
| 36 | L30F Y31H R60D | ND / ND / ND | 1 of 9 (4.12) |
| 37 | S25C Y31N A57L | 2.05 / 1.81 / 1.97 | 0 of 9 |
| 38 | S33H N35I K36T | 1.94 / 1.66 / 1.81 | 1 of 9 (4.47) |
| 39 | H98Y R99S | 0.89 / 1.22 / 1.15 | 1 of 9 (3.94) |
| 40 | R34M S38C P101A | ND / ND / 3.58 | 0 of 9 |
| 41 | S26Y T59G P101Y | ND / ND / ND | 0 of 9 |
| 42 | L30D N35M H98M | ND / ND / 4.30 | 1 of 9 (3.37) |
| 43 | E32M T59P P101T | ND / ND / ND | 0 of 9 |
| 44 | V29I T59Y R60L | 3.60 / 3.03 / 4.66 | 1 of 9 (4.63) |
| 45 | K24H A57S L102C | 1.19 / 1.22 / 2.35 | 0 of 9 |

Repeated from above, the 3 best binders with a signal in all replicates:

changes,"log10 Kd, replicates",signal with controls
S25L W56G R60H,-0.47 / 0.05 / -0.38,7 of 9 (5.31)
S25F K36Q L102G,-0.01 / 0.23 / 0.07,1 of 9 (4.65)
S25Y V29G T59Q,0.13 / 0.45 / 0.45,8 of 9 (4.84)